From BindingDB's records for US20260007681 (2026)

Biological target: DNA damage-binding protein 1/Protein cereblon (Homo sapiens, UniProt Q16531+Q96SW2)
Test: In Vitro Assay: IC50 Measurements for Binding to CRBN/DDB1

Work on `COc1cc(N2CCC3(CCN(C(=O)CN4Cc5cnc(C(=O)N[C@H]6CCC(=O)NC6=O)cc5C4)CC3)CC2)ccc1[C@@H]1c2[nH]c3ccccc3c2CCN1CC(C)F` (stereo partly specified) yielded an IC50 of 2750 nM.
